Legend:
SSTR5 over SSTR2 = conditions: reported; no reference printed with the value; cited from earlier work
SSTR2 N186G = test: BRET-based Gi3 activation assay, SSTR2 N186G; assay type: cell-based; conditions: HEK-293S, n=3 biological replicates
SSTR2 Q187S = test: BRET-based Gi3 activation assay, SSTR2 Q187S; assay type: cell-based; conditions: HEK-293S
[1] = system: SSTR2 with ECL3/TM7 of SSTR1; test: BRET-based Gi3 activation assay, SSTR2 with ECL3/TM7 of SSTR1; assay type: cell-based; conditions: HEK-293S, n=3
[2] = system: SSTR2 with ECL3/TM7 of SSTR4; test: BRET-based Gi3 activation assay, SSTR2 with ECL3/TM7 of SSTR4; assay type: cell-based; conditions: HEK-293S, n=3
SSTR1–5 = conditions: cited from earlier work
[3] = system: SSTR2 ECL2+/4 (entire ECL2 from SSTR4); test: BRET-based Gi3 activation assay, SSTR2 ECL2+/4 chimera; assay type: cell-based; conditions: HEK-293S, n=3
SSTR2 W188G = conditions: Gi3 BRET, HEK-293S, n=3 biological replicates
[4] = system: SSTR1 S305^7.35F and Q291^6.55N; conditions: S305^7.35F and Q291^6.55N in SSTR1; cited from earlier work
SSTR1 Q291^6.55N = conditions: Q291^6.55N alone; cited from earlier work

| Substance | improved binding to SSTR5 over SSTR2 (SSTR5 over SSTR2) | selectivity for SST14 over octreotide (EC50 ratio vs wild-type) (SSTR2 N186G) | Gi3 response and ligand selectivity compared to wild-type (SSTR2 Q187S) | G protein activation (effect of ECL3 exchange) [1] | G protein activation (effect of ECL3 exchange) [2] | affinity across SSTR subtypes (SSTR1–5; all SSTR subtypes, no reference printed with the statement) | ligand selectivity of ECL2+/4 swap [3] | ligand selectivity, SST14 vs octreotide (EC50 ratio vs wild-type) (SSTR2 W188G) | octreotide binding after SSTR1 double mutation [4] | improvement of octreotide binding to SSTR1 (SSTR1 Q291^6.55N) | subtype selectivity (SSTR1–5) |
| --- | --- | --- | --- | --- | --- | --- | --- | --- | --- | --- | --- |
| pasireotide | 50 fold | – | – | – | – | – | – | – | – | – | – |
| SST14: endogenous 14-residue somatostatin peptide (Cayman, 20809) | – | increased selectivity for SST14 over octreotide | identical Gi3 response and ligand selectivity compared to wild-type | completely abolished G protein activation | completely abolished G protein activation | nearly identical affinity | – | – | – | – | – |
| octreotide | – | – | identical Gi3 response and ligand selectivity compared to wild-type | completely abolished G protein activation | completely abolished G protein activation | – | selected against octreotide | altered selectivity to be unfavorable to octreotide | near-SSTR2 levels of octreotide binding | does little to improve octreotide binding to SSTR1 | SSTR2-selective |
